# Antibody variant affinities, Ab-91 heavy chain, assay 2

Source: Engelhart et al. 2022 (doi:10.1038/s41597-022-01779-4), MIT Lincoln Laboratory and A-Alpha Bio; data file from the FLAb repository.

All variants were tested on one target, the spike HR2 peptide PDVDLGDISGINAS (SARS-CoV-2).

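Phage display of a naive human antibody library on the peptide gave the parent. AAYL51 was designed without a model: most single CDR substitutions and a random sample of double and triple ones. The assay is AlphaSeq: two haploid yeast populations carry antibody and antigen on their surface. Mating (16 h, 30 °C) was followed by selection of diploids and sequencing of their barcodes. Read counts were normalised to the haploid input and turned into Kd by a linear fit to BCL2-family pairs of known affinity, for each replicate. Mating was done three times.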

Parent scFv Ab-91: VL joined to VH by three GGGGS repeats. Changes lie in the heavy chain CDRs alone.
VL: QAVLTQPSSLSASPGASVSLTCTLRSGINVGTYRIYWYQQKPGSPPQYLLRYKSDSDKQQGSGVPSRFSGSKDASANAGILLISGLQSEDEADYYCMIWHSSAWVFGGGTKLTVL
VH: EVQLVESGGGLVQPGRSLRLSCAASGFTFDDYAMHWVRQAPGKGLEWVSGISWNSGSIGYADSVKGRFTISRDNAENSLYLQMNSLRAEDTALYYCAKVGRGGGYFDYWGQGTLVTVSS

The parent's heavy chain CDRs are GFTFDDYAMH, GISWNSGSIGYADSVK, VGRGGGYFDY; each variant's own CDRs replace them letter for letter. The read-out is the apparent dissociation constant on a log10 scale (nM): the lower, the stronger. Replicates are averaged; those with no signal do not enter the mean. "n.d." marks a missing value. The strain was present, yet no cells mated with the target were sequenced in that replicate, which points to weak or no binding.

CDR-H1	CDR-H2	CDR-H3	log10 Kd, replicates	mean, log10 nM	empty controls
GFTFDDYAMH	VISWNSGSIGYADSVL	VGRGGGYFDH	3.94 5.53 4.80	4.76	3/9 (4.42)
GFTCDDYAYE	GISWNSGSIGYADSVK	VGRGGGYFDY	3.74 n.d. n.d.	3.74	0/9
GHGFDDYAMH	GISWNSGSIGYADSVK	VGRGGGYMDY	n.d. n.d. n.d.	n.d.	0/9
GFTFDDYAMH	GISWNSGSMGYADSVK	NGAGGGYFDY	n.d. n.d. n.d.	n.d.	1/9 (4.20)
GFTFIEYAMH	DISWNSGSIGYADSVK	VGRGGGYFDY	n.d. 5.27 4.18	4.72	3/9 (5.50)
GTTFDDYAMH	GIPWNSGSIGYADSNK	VGRGGGYFDY	n.d. n.d. n.d.	n.d.	2/9 (4.43)
GFTFFDYAMH	GISWNSGSIGYADSWR	VGRGGGYFDY	n.d. n.d. 4.37	4.37	1/9 (4.19)
GFYADDYAMH	GISWNSGSIGYADSVK	VGRGGGYFTY	n.d. n.d. n.d.	n.d.	1/9 (3.66)
GFTFDNYAMH	GISWNSGSIGYADSVK	VGYGGIYFDY	n.d. n.d. n.d.	n.d.	0/9
GFTFDDYAAH	GISWNSGRIGYTDSVK	VGRGGGYFDY	n.d. n.d. n.d.	n.d.	0/9
GFTFDDYAMH	GILWNSGSWGYADSVK	VGRGGGYFFY	n.d. n.d. n.d.	n.d.	1/9 (3.67)
GFTFDDYAMH	GISWNSGSIGYADVDK	VGRGGGYVDY	n.d. n.d. n.d.	n.d.	1/9 (4.60)
GFTFDDYAMH	GISWNSPSIGYAKSVK	VGRGEGYFDY	4.83 5.91 n.d.	5.37	2/9 (4.24)
GFTFDDYAMH	GISWNLGSIGYADSRK	VGRGTGYFDY	4.23 4.43 n.d.	4.33	3/9 (4.62)
GFTFDDYAMH	GNSWNSGSIGYSDSVK	VGRGGGVFDY	n.d. n.d. n.d.	n.d.	3/9 (3.41)
GFTFDDYTMH	GISWNSGSIGYADSVK	VGRGCGYVDY	n.d. n.d. n.d.	n.d.	0/9
GFNFDDYAKH	GISWNSGSIGYGDSVK	VGRGGGYFDY	n.d. n.d. n.d.	n.d.	0/9
GFTADDYAMH	GISWNSGSIGYADSNK	VGRSGGYFDY	n.d. n.d. n.d.	n.d.	0/9
GLTFDDYAMH	GIQWNSGSIGYADSVK	VGRGGGYPDY	n.d. n.d. n.d.	n.d.	1/9 (4.53)
GFTFDDYAMH	GIMWNSGSIGYADSVK	CGRGGGDFDY	n.d. n.d. n.d.	n.d.	0/9
GFTFDDYAMH	GISWNSGSIGYADSVG	VGRRGGYGDY	3.76 4.45 n.d.	4.11	1/9 (4.72)
GFTTDDYAMH	GISWNSGSIGYADIVK	VGRGGGYFDY	n.d. n.d. n.d.	n.d.	0/9
GFTFDDYAMH	QYSWNSGSIGYADSVK	VGRGGGYFDY	5.20 n.d. n.d.	5.20	4/9 (4.71)
GFTFDDYAMM	GISGNSGSIGYGDSVK	VGRGGGYFDY	4.76 5.64 6.00	5.47	5/9 (5.16)
GFTFDDHAMH	GISWNSGSRGYADSVA	VGRGGGYFDY	1.47 1.47 0.89	1.28	1/9 (4.49)
GFTFDDYCME	GISWNSGPIGYADSVK	VGRGGGYFDY	n.d. n.d. n.d.	n.d.	0/9
GFTFDDYAMH	GISWNSGSKGYADSVK	VGYGGGYWDY	n.d. 4.48 5.10	4.79	2/9 (5.00)
CFTFDDYAFH	GIWWNSGSIGYADSVK	VGRGGGYFDY	5.29 n.d. n.d.	5.29	1/9 (2.77)
GFTFDDYAMH	GISWNSGSIGYADSVK	VGRGGGYFYY	n.d. n.d. n.d.	n.d.	0/9
GFTIDDYAMH	GCSWNSGSIGYADSVK	VGRGGGYFGY	n.d. n.d. n.d.	n.d.	0/9
GTTFDDFAMH	GISWNSASIGYADSVK	VGRGGGYFDY	3.09 2.95 3.68	3.24	4/9 (4.26)
GLTFDDYAVH	GASWNSGSIGYADSVK	VGRGGGYFDY	3.26 n.d. n.d.	3.26	0/9
GFTFDDYAMH	GCSWNSTSIGYADSVK	VGRGGGYFDE	4.23 4.64 n.d.	4.44	0/9
GFTFDDYAMH	GIQWNCGSIGYADSVK	VGRGRGYFDY	n.d. n.d. n.d.	n.d.	1/9 (4.65)
GFDFDDYAMH	GISWNSGSIGYPGSVK	VGRGGGYFDY	5.05 n.d. n.d.	5.05	3/9 (4.82)
GFTFDDYAMH	GISINSVSIGYADSVK	VGRGGGYFAY	n.d. n.d. 3.48	3.48	0/9
GFTFDDYAMH	GISWNSGSIGYARSVK	VGIGGGAFDY	n.d. n.d. n.d.	n.d.	0/9
GLTFDDYAVH	GISWNSGSIGYADSVK	VGRGGGYFHY	n.d. n.d. n.d.	n.d.	0/9
GFTFDWYAMH	GISWNSGSIGYADSWK	VGRSGGYFDY	4.19 5.43 n.d.	4.81	4/9 (4.66)
GITFDDYAMH	GISDNSGSIGYADSVK	VGRGGYYFDY	4.52 4.54 6.06	5.04	6/9 (5.12)
GFTFDEYAMD	GISWNSGSIGYADSVK	VGRGPGYFDY	n.d. n.d. n.d.	n.d.	2/9 (4.47)
GFTFDDYAMH	GISWNSGSIGYADDVK	GGRGGRYFDY	n.d. n.d. 4.78	4.78	1/9 (4.48)
GFTFDDYVMH	SISWNSGHIGYADSVK	VGRGGGYFDY	4.97 n.d. n.d.	4.97	2/9 (5.05)
GFTFQDYAMH	GISWNSGSIGYADSVK	VGRGGGYFDY	4.80 n.d. n.d.	4.80	3/9 (4.79)
GFTFDDYAMH	GISWVSGSIGWADSWK	VGRGGGYFDY	n.d. n.d. n.d.	n.d.	2/9 (3.87)
GFWFDDYAMH	GISWNSGSIGPEDSVK	VGRGGGYFDY	5.54 4.39 5.42	5.12	7/9 (4.48)
GFTFDDYANH	GISWNSGSIGYLDSVK	VGRKGGYFDY	4.58 n.d. 3.99	4.29	1/9 (2.87)
GFTFDDYAMH	GISWNSGSIGYADSVV	VGRGGGYFDY	n.d. 2.75 n.d.	2.75	0/9
GDTFDDYAMH	GISWNDGSIGYADSVK	VGRHGGYFDY	3.75 n.d. 3.18	3.46	0/9
GFTFDDVAMH	GISWNSGSIGYADSVK	VGQFGGYFDY	n.d. n.d. n.d.	n.d.	1/9 (4.04)

The closing 7 entries, repeated:

CDR-H1	CDR-H2	CDR-H3	log10 Kd, replicates	mean, log10 nM	empty controls
GFTFQDYAMH	GISWNSGSIGYADSVK	VGRGGGYFDY	4.80 n.d. n.d.	4.80	3/9 (4.79)
GFTFDDYAMH	GISWVSGSIGWADSWK	VGRGGGYFDY	n.d. n.d. n.d.	n.d.	2/9 (3.87)
GFWFDDYAMH	GISWNSGSIGPEDSVK	VGRGGGYFDY	5.54 4.39 5.42	5.12	7/9 (4.48)
GFTFDDYANH	GISWNSGSIGYLDSVK	VGRKGGYFDY	4.58 n.d. 3.99	4.29	1/9 (2.87)
GFTFDDYAMH	GISWNSGSIGYADSVV	VGRGGGYFDY	n.d. 2.75 n.d.	2.75	0/9
GDTFDDYAMH	GISWNDGSIGYADSVK	VGRHGGYFDY	3.75 n.d. 3.18	3.46	0/9
GFTFDDVAMH	GISWNSGSIGYADSVK	VGQFGGYFDY	n.d. n.d. n.d.	n.d.	1/9 (4.04)

For reference, the parent read 1.86 as the reference entry and 0.88 as a member of this library. Nonspecific signal, from three strains lacking the peptide, appeared in 21% of pairings of library AAYL51, centred on 4.54 (5% of these signals below 3.26); values are not corrected for it. Also given: how often the same scFv was detected with the empty control strains, with their mean in brackets.